From PMC11502502 (Nature cancer, 2024)

The chains behind the UniProt entries cited, without tags or fusion partners. Residues count along the entry.
UniProt P10415, whole entry: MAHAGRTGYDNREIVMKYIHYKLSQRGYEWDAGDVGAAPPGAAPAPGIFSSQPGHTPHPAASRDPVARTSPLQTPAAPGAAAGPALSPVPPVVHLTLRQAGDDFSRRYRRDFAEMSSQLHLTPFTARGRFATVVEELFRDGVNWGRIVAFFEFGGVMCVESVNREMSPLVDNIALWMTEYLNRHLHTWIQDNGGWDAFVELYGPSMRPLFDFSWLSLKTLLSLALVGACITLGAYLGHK
UniProt Q07820, 173-321 limits assumed: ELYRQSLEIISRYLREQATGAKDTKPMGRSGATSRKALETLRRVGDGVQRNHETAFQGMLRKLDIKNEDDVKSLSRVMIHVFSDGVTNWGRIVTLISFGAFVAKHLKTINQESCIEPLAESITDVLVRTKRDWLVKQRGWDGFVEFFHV
UniProt Q07817, whole entry: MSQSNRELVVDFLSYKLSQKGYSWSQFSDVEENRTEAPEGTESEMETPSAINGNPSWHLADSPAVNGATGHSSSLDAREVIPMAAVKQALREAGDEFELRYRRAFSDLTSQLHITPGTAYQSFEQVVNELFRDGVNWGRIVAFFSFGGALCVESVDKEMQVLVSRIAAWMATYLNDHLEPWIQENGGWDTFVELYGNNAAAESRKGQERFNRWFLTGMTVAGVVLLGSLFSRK

Key:
Bcl-2 = Bcl-2 (Homo sapiens, UniProt P10415); assay: Bcl-2–Bad HTRF assay; format: binding; settings: read-out: Bcl-2–Bad HTRF IC50
caspases 3 and 7 = assay: Caspase 3 activation (Table 1, cell line not stated); settings: read-out: Caspase 3 activation EC50; cell line not given
human MCL1 protein [1] = molecular target: T1, human MCL1 protein (Homo sapiens, UniProt Q07820); assay: SPR binding to immobilized MCL1 protein; settings: read-out: SPR Kd
AMO-1 = assay: CellTiter-Glo cell viability, AMO-1; settings: read-out: Antiproliferative IC50u, 72 h, corrected by free fraction
Bcl-XL = Bcl-XL (Homo sapiens, UniProt Q07817); assay: Bcl-XL–Bad HTRF assay; format: binding; settings: read-out: Bcl-XL–Bad HTRF IC50
[2] = In vivo rat intravenous pharmacokinetics
HMC1–8 = assay: CellTiter-Glo cell viability, HMC1–8; format: cell-based, human; settings: read-out: Antiproliferative IC50u, 72 h, corrected by free fraction
human MCL1 protein [3] = molecular target: T1, human MCL1 protein; assay: MCL1–Noxa HTRF (TR-FRET) assay; format: binding; settings: read-out: MCL1–Noxa HTRF IC50

SMILES: Cc1c2c(nn1C)COCCCCn1c(C(=O)O)c(CCCOc3cccc4ccccc34)c3cccc-2c31
- IC50 (Bcl-2): > 20 µM
- EC50 (caspases 3 and 7): 2500 nM
- Kd (human MCL1 protein [1]): 21.4 nM
- IC50 (AMO-1): 1100 nM
- IC50 (Bcl-XL): > 20 µM
- In vivo rat intravenous MRT [2]: 1.4 h
- IC50 (HMC1–8): > 7 µM
- IC50 (human MCL1 protein [3]): 1.7 nM
